{
  "sequences": {"note": "By UniProt entry, the sequences of proteins in these tests, tags left out. Where a name states a change or a piece, a line headed by the entry shows the natural chain unless it says otherwise.", "UniProt P23458": "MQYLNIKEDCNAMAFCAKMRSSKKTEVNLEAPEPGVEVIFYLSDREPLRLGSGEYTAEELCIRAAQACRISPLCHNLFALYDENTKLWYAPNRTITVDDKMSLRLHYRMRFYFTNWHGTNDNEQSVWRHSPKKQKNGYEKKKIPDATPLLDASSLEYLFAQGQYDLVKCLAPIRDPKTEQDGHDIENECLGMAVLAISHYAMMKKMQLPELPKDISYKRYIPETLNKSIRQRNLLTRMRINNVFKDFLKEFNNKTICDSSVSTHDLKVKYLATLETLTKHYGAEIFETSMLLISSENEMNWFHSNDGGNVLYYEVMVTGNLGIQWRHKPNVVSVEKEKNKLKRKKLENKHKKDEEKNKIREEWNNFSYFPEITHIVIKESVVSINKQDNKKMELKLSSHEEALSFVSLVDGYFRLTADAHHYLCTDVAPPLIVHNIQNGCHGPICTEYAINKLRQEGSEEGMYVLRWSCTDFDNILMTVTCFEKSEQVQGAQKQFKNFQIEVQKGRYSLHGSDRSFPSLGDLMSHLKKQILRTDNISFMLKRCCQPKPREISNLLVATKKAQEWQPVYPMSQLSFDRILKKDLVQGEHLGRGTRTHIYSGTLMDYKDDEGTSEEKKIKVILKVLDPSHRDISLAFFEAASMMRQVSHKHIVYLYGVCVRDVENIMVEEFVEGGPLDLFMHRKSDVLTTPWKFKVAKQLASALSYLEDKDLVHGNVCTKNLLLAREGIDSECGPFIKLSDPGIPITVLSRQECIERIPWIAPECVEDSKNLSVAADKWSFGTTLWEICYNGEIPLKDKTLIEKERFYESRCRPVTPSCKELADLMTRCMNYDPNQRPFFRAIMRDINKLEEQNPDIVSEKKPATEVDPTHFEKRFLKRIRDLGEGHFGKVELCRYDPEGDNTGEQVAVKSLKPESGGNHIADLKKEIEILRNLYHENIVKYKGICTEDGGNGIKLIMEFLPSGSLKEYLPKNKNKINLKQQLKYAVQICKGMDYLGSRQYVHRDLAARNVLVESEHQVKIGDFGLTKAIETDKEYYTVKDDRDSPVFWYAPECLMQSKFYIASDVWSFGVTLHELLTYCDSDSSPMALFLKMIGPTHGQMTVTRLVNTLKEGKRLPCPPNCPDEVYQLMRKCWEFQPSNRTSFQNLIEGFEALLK", "UniProt P52333": "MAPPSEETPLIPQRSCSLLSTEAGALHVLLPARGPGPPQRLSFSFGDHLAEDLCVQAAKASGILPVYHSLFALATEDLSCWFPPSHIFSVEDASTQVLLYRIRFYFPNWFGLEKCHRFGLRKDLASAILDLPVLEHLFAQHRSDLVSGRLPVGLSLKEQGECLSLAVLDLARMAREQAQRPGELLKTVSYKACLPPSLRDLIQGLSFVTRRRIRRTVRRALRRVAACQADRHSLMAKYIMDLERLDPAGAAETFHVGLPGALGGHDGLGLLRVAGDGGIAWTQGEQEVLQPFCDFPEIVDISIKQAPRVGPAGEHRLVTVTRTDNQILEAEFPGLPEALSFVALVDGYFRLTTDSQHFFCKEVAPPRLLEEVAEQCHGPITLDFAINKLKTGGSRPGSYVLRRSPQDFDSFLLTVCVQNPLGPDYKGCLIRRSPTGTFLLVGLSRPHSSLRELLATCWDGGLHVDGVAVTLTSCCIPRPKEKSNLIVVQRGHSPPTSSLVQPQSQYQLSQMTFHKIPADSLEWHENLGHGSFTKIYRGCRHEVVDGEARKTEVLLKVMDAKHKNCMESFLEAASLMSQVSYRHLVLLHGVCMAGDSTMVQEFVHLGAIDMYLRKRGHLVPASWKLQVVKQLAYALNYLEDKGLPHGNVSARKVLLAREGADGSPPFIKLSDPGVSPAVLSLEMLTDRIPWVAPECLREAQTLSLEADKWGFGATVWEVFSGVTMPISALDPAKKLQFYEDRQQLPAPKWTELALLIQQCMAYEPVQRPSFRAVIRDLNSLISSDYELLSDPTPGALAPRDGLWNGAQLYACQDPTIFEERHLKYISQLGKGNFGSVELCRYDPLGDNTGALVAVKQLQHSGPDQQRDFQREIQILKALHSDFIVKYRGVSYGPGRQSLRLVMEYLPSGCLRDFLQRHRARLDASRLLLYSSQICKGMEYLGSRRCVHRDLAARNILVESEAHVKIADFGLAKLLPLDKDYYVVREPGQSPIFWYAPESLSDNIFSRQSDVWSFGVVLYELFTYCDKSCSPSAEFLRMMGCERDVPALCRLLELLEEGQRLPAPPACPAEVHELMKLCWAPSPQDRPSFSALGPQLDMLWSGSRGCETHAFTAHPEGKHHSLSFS"},
  "source": "patent US10550118B2",
  "about": "“JAK inhibitors containing a 4-membered heterocyclic amide” (THERAVANCE BIOPHARMA R&D IP, LLC, priority 2017, dated 2020)",
  "key": {"JAK1": {"target": "JAK1 (Homo sapiens (Human), UniProt P23458)", "assay": "Biochemical JAK kinase assay (LanthaScreen), JAK1", "conditions": "Km ATP 25 μM; from pIC50 by Cheng-Prusoff", "protocol": "(§1) Assay 1: Biochemical JAK Kinase Assays\n(§2) A panel of four LanthaScreen JAK biochemical assays (JAK1, 2, 3 and Tyk2) were carried in a common kinase reaction buffer (50 mM HEPES, pH 7.5, 0.01% Brij-35, 10 mM MgCl2, and 1 mM EGTA). Recombinant GST-tagged JAK enzymes and a GFP-tagged STAT1 peptide substrate were obtained from Life Technologies.\n(§3) Serially diluted compounds were pre-incubated with each of the four JAK enzymes and the substrate in white 384-well microplates (Corning) at ambient temperature for 1 h. ATP was subsequently added to initiate the kinase reactions in 10 μL total volume, with 1% DMSO. […] The plates were allowed to incubate at ambient temperature for 1 h before being read on the EnVision reader (Perkin Elmer).\n(§4) For dose-response analysis, percent inhibition data were plotted vs. compound concentrations, and IC50 values were determined from a 4-parameter robust fit model with the Prism software (GraphPad Software). Results were expressed as pIC50 (negative logarithm of IC50) and subsequently converted to pKi (negative logarithm of dissociation constant, Ki) using the Cheng-Prusoff equation."}, "JAK3": {"target": "JAK3 (Homo sapiens (Human), UniProt P52333)", "assay": "Biochemical JAK kinase assay (LanthaScreen), JAK3", "protocol": "as §1, §2, §3, §4"}},
  "note": "pKi: −log10 of the molar value.",
  "data": [
    {"smiles": "CCc1cc(O)c(F)cc1-c1ccc2c(-c3nc4c([nH]3)CN(C(C)C)[C@H](C(=O)N3CC(C)(N(C)C)C3)C4)n[nH]c2c1", "note": "[Example 8-16]", "values": [
      {"measurement": "pKi", "setting": "JAK1", "result": 10.00},
      {"measurement": "pKi", "setting": "JAK3", "result": 9.49}
    ]}
  ]
}
